IC50 data for 1 compound are collected here from ChEMBL document CHEMBL1133082, “Adenosine kinase inhibitors. 2. Synthesis, enzyme inhibition, and antiseizure activity of diaryltubercidin analogues” (J Med Chem, 2000).

Protein sequences, listed by entry. Tags and fused reporters are not part of them. Lines headed by an entry give the natural chain unless they say otherwise; changes in a name come on top.
UniProt P55263: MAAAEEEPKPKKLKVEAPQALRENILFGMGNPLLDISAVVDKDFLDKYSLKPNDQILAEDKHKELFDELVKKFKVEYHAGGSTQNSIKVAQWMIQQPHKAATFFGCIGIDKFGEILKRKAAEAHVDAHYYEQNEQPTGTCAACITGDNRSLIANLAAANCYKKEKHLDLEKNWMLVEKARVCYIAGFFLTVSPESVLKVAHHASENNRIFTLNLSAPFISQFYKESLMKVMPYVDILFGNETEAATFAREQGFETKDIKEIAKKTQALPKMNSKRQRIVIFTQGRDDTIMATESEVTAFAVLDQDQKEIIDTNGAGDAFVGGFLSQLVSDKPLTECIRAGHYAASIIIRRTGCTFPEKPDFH

For this test, the target named is Adenosine kinase (Homo sapiens, UniProt P55263). The test is described as follows: Inhibition of recombinant human adenosine kinase.

Structures are written as SMILES.

As usually defined, the IC50 is the concentration needed to halve the response being measured. Take `C[C@H]1O[C@@H](n2cc(-c3ccccc3)c3c(Nc4ccc(F)cc4)ncnc32)[C@H](O)[C@@H]1O`: the concentration for half-maximal inhibition (IC50) came to 1.5 nM.
